According to patent US20250145693A1, “HERV-K ANTIBODY, CELL, VACCINE, AND DRUG THERAPEUTICS” (priority 2021, published 2025):

System: 4T1pLVXKenv tumors
Assay: 4T1pLVXKenv combination treatment, Treg cells
Format: in vivo, mouse
Details: pLVXKenv vs pLVX; 6H5 once, IL2 for five days
Description: FIG. 23. RT-PCR was used to determine the expression of HERV-K env gene SU and TM in 4T1 or B16F10 cells stably transfected with pLVXKenv (full-length HERV-K SU+TM) or pLVX and analyzed for expression using HERV-K type 1 SU or TM primers. FIG. 23A. BALB/c mice were inoculated with 3×10^5 4T1pLVXKenv or 4T1pLVX cells on day 0. These mice were then treated: FIG. 23B with CpG (1.24 nmol), HERV-K SU protein (10 μg, 20 μg, and 20 μg), or CpG+ HERV-K SU protein on days 6, 13, and 19. Tumor weights were compared at week 4 post tumor cell inoculation; (FIG. 23C) with Aza (0.5 mg/kg) daily for five days in two weekly cycles, anti-PD-1 (200 μg per mouse every four days; four treatments), or Aza+anti-PD-1. Mice treated with PBS were used as controls, and tumor weights were compared among groups; and (FIG. 23D) with anti-HERV-K antibody (6H5; once) and with IL2 (for five days). […] (*=P<0.05, **=P<0.01, and ***=P<0.001).
HERV-K/checkpoint blockade, HERV-K/DNA hypomethylation and HERV-K/interleukin combined therapy. Murine mammary tumor cells (4T1) or melanoma cells (B16F10) were engineered to express HERV-K Env34 to produce syngeneic models of HERV-K crucial for studying the role of the anti-tumor immune response. […]

Substance: IL-2: interleukin
- T regulatory (Treg) cells: Significantly decreased T regulatory (Treg) cells
